ChEMBL document CHEMBL5506001 (J Med Chem, 2024)

Assays:
Homo sapiens [1] = species: Homo sapiens; settings: filed as activator
Homo sapiens [2] = species: Homo sapiens; settings: filed as activator; remark: listed apart in the source

deltaH (Homo sapiens [1]): -10.3 kcal/mol
deltaS (Homo sapiens [2]): -12 cal/mol.K
Structure (SMILES): Cc1nc2cc(OCCN3CCOCC3)c(S(=O)(=O)Nc3ccc(N4C[C@H](C)C[C@@H](C)C4)nc3)cc2c(=O)[nH]1
